Literature values, collected in patent publication US9546151B2, “VMAT inhibitory compounds” (Oregon Health & Science University, priority 2014, dated 2017).

The chains behind the UniProt entries cited, without tags or fusion partners.
UniProt Q05940, whole entry, species assumed: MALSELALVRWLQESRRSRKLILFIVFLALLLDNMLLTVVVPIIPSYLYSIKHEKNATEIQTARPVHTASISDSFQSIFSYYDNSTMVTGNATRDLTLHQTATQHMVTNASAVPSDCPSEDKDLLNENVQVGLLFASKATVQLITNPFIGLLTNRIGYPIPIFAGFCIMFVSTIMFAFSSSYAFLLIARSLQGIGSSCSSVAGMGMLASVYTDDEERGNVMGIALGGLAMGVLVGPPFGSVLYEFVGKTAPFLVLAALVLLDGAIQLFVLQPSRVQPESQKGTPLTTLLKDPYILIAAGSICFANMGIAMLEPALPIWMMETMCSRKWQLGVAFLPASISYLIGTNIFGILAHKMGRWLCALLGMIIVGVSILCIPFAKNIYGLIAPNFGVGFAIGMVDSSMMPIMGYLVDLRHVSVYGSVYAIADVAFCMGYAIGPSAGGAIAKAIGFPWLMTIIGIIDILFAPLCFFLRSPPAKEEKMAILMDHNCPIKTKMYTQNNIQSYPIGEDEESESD

Biological target: VMAT2 (Homo sapiens, UniProt Q05940)
Settings: background statements; cited from earlier work

Row | SMILES | affinity for VMAT2 (in words)
1 | COC(=O)[C@H]1[C@H]2C[C@@H]3c4[nH]c5cc(OC)ccc5c4CCN3C[C@H]2C[C@@H](OC(=O)c2cc(OC)c(OC)c(OC)c2)[C@@H]1OC [reserpine, Methyl (3β,16β,17α,18β,20α)-11, 17-dimethoxy-18-[(3,4,5-trimethoxybenzoyl)oxy]yohimban-16-carboxylate] | high-affinity
2 | COc1cc2c(cc1OC)[C@H]1C[C@@H](O)[C@H](CC(C)C)CN1CC2 [DTBZ, Dihydrotetrabenazine] | high affinity
